The entries are a selection whose mix differs from that of the whole data set. Calls of active or inactive are those of the source.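 Rule for the calls: active = inhibition above a set limit, 3 SD over mean compound inhibition (cut at about 8.4% in these data); inactive = the rest.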
Experiment: RAM signaling blockers in budding yeast – dse1pr::URA3 reporter, 5-FOA selection, primary screen (AID 868);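 note: 0% = DMSO-only wells with no growth and 100% = 10 µM 1-NA-PP1 full growth; inhibition rescues growth on 5-FOA so higher OD means more RAM inhibition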
Conditions: S. cerevisiae dse1pr::URA3 reporter, 5-FOA growth OD615, 2 d; at 50 µM; hits give high values; analog-sensitive cbk1-as2 kinase mutant strain

Row | SMILES | inhibition
1 | O=[N+]([O-])c1cc([N+](=O)[O-])c(NCC2CCS(=O)(=O)C2)c([N+](=O)[O-])c1 (stereo not drawn) | inactive: 0.96%
2 | CN(C)CCOC(=O)C(O)(c1ccccc1)C1CCCCC1 (stereo not drawn) | inactive: 0%
3 | COc1ccc(NP(C)(=O)Oc2ccccc2OC)cc1 (stereo not drawn) | inactive: 1.38%
4 | COc1ccc(OP(C)(=O)Nc2cccc(Br)c2)cc1 (stereo not drawn) | inactive: 0.79%
5 | Cc1ccccc1NP(C)(=O)Nc1ccccc1C | inactive: 2.42%
6 | CP(=O)(Nc1ccc2c(c1)OCCO2)Oc1ccccc1 (stereo not drawn) | inactive: -0.11%
7 | CCOP(C)(=S)SCC(=O)NC(C)(CC)C(=O)O (stereo not drawn) | inactive: 1.44%
8 | O=C(OCCN1CCN(CCOCc2ccccc2)CC1)C(O)(c1ccccc1)c1ccccc1 | inactive: -0.4%
9 | CP(=O)(Nc1ccccc1F)Oc1ccccc1 (stereo not drawn) | inactive: 1.5%
10 | CC(C)c1ccc(OP(C)(=O)Nc2ccc(SC(F)(F)F)cc2)cc1 (stereo not drawn) | inactive: 4.31%
11 | CP(=O)(Nc1ccccc1)Oc1ccc(F)cc1 (stereo not drawn) | inactive: -0.4%
12 | CCN(CC)CCCOC(=O)C(O)(c1ccccc1)C1CCCCC1 (stereo not drawn) | inactive: 3.5%
13 | CCOC(=O)c1ccc(NP(C)(=O)Oc2ccc(F)cc2)cc1 (stereo not drawn) | inactive: 1.77%
14 | COc1ccc(OP(C)(=O)Nc2ccc(SC(F)(F)F)cc2)cc1 (stereo not drawn) | inactive: -2.21%
15 | CP(=O)(Nc1ccc(Cl)cc1Cl)Oc1ccccc1 (stereo not drawn) | inactive: 1.88%
16 | CP(=O)(OCCOc1ccccc1)OCCOc1ccccc1 | inactive: 2.04%
17 | Cc1nc2ccc3ccccc3c2o1.O=[N+]([O-])c1cc([N+](=O)[O-])c(O)c([N+](=O)[O-])c1 | inactive: 1.43%
18 | COc1ccccc1OP(C)(=O)Nc1ccc(C)c(C)c1 (stereo not drawn) | inactive: 0.27%
19 | COc1ccc(OP(C)(=O)Nc2ccccc2Br)cc1 (stereo not drawn) | inactive: 0.63%
20 | Cc1cc(C)cc(OP(C)(=O)Nc2cccc(C(F)(F)F)c2)c1 (stereo not drawn) | inactive: 2.12%
21 | COc1ccccc1OP(C)(=O)Nc1ccc(C)cc1C (stereo not drawn) | inactive: -1.07%
22 | CP(=O)(Nc1ccccn1)Oc1ccccc1 (stereo not drawn) | inactive: -1.03%
23 | CCc1ccc(OP(C)(=O)O)cc1 | inactive: 0.92%

Row | SMILES | inhibition
24 | Cc1c(NP(C)(=O)Oc2ccc(C(C)C)cc2)c(=O)n(-c2ccccc2)n1C (stereo not drawn) | inactive: 0.81%
25 | O=[N+]([O-])c1cc([N+](=O)[O-])c(Nc2ccccn2)c([N+](=O)[O-])c1 | inactive: -0.73%
26 | COc1ccc(OP(C)(=O)Nc2ccccn2)cc1 (stereo not drawn) | inactive: 0.44%
27 | CN(C)CCOC(=O)C(O)(c1ccccc1)C1CCCC1 (stereo not drawn) | inactive: 2.91%
28 | CN(C)C(=O)c1c([N+](=O)[O-])cc([N+](=O)[O-])cc1[N+](=O)[O-] | inactive: 0.5%
29 | COc1ccccc1OP(C)(=O)Nc1ccccc1Br (stereo not drawn) | inactive: 0.97%
30 | CC(C)(C)c1ccc(OP(C)(=O)O)cc1 | inactive: 1.5%
31 | CP(=O)(Nc1ccc(Cl)cc1)Oc1ccc(F)cc1 (stereo not drawn) | inactive: -0.14%
32 | CCc1ccc(OP(C)(=O)Nc2cccnc2)cc1 (stereo not drawn) | inactive: 3.39%
33 | CP(=O)(Oc1ccccc1)N1CCOC1=O (stereo not drawn) | inactive: 1.83%
34 | COc1ccc(OP(C)(=O)Nc2ccc(Br)cc2)cc1 (stereo not drawn) | inactive: 0.13%
35 | CCN(CC)CC(O)COC(=O)C(O)(c1ccccc1)C1CCCCC1 (stereo not drawn) | inactive: 0.26%
36 | CCOC(=O)c1ccc(NP(C)(=O)Oc2ccc(Cl)cc2)cc1 (stereo not drawn) | inactive: 0.83%
37 | CP(=O)(Nc1ccccc1Br)Oc1ccccc1 (stereo not drawn) | inactive: 1.76%
38 | COc1ccccc1OP(C)(=O)Nc1ccccc1 (stereo not drawn) | inactive: 0.13%
39 | CP(=S)(Nn1cnnc1)Oc1ccccc1 (stereo not drawn) | inactive: 4.14%
40 | CP(=O)(Nc1ccccn1)Oc1ccc(Cl)cc1 (stereo not drawn) | inactive: 0.55%
41 | CCOC(=O)c1ccc(NP(C)(=O)Oc2ccc(OC)cc2)cc1 (stereo not drawn) | inactive: 0.49%
42 | CCOP(C)(=S)SCC(=O)NC(C)C(=O)O (stereo not drawn) | inactive: 1.66%
43 | Cc1cc(C)cc(OP(C)(=O)Nc2ccc(SC(F)(F)F)cc2)c1 (stereo not drawn) | inactive: 4.87%
44 | CP(=O)(NC(=O)Nc1ccccc1)Oc1ccccc1 (stereo not drawn) | inactive: 0.65%
45 | CP(=O)(Oc1ccccc1)OC(c1ccccc1)C(F)(F)F (stereo not drawn) | inactive: 0.25%
46 | Cc1cccc(C)c1OP(C)(=O)Nc1ccc(SC(F)(F)F)cc1 (stereo not drawn) | inactive: 4.54%

Row | SMILES | inhibition
47 | CCN(CC)CCCOC(=O)C(O)(c1ccccc1)c1ccccc1 | inactive: -0.25%
48 | Cc1cc(C)cc(OP(C)(N)=O)c1 (stereo not drawn) | inactive: -0.38%
49 | COc1ccc(OP(C)(=O)Nc2cccc(F)c2)cc1 (stereo not drawn) | inactive: 0.67%
50 | COc1ccccc1OP(C)(=O)Nc1cc(Cl)ccc1C (stereo not drawn) | inactive: -1.25%
51 | Cc1ccc(NP(C)(=O)Oc2ccccc2)c(C)c1 (stereo not drawn) | inactive: 2.02%
52 | COc1ccccc1OP(C)(=O)Nc1ccc(C)cc1 (stereo not drawn) | inactive: 0.46%
53 | CCOC(=O)c1ccc(NP(C)(=O)Oc2ccccc2)cc1 (stereo not drawn) | inactive: 0.26%
54 | O=[N+]([O-])c1ccc2c(c1)C=Nc1ccccc1O2 | inactive: 1.38%
55 | Cc1cccc(C)c1OP(C)(N)=O (stereo not drawn) | inactive: -1.02%
56 | CC(C)(C)c1ccc(OP(C)(=O)Nc2ccc(SC(F)(F)F)cc2)cc1 (stereo not drawn) | active: 8.96%
57 | CC1=NCCc2c1[nH]c1ccccc21.O=[N+]([O-])c1cc([N+](=O)[O-])c(O)c([N+](=O)[O-])c1 | inactive: 0.75%
58 | Cc1ccc(C)c(NP(C)(=O)Oc2ccccc2)c1 (stereo not drawn) | inactive: 1.55%
59 | Cc1cc(C)cc(OP(C)(=O)Nc2ccccn2)c1 (stereo not drawn) | inactive: 0.56%
60 | CP(=O)(Nc1cccc(Br)c1)Oc1ccccc1 (stereo not drawn) | inactive: 3.26%
61 | CCOC(=O)c1ccc(NP(C)(=O)Oc2cc(C)cc(C)c2)cc1 (stereo not drawn) | inactive: 2.71%
62 | Cc1cc(C)cc(OP(C)(=O)Nc2ccc(C)cc2C)c1 (stereo not drawn) | inactive: -0.71%
63 | Cc1nc2ccc3ccccc3c2s1.O=[N+]([O-])c1cc([N+](=O)[O-])c(O)c([N+](=O)[O-])c1 | inactive: 0.81%
64 | O=[N+]([O-])c1cc([N+](=O)[O-])c(-n2nnc3ccccc32)c([N+](=O)[O-])c1 | inactive: 3.83%
65 | CCCOc1ccc(NP(C)(=O)Oc2ccc(Cl)cc2)cc1 (stereo not drawn) | inactive: -0.81%
66 | CP(=O)(Nc1ccc(SC(F)(F)F)cc1)Oc1ccccc1 (stereo not drawn) | inactive: 0%
67 | CN1CCCCC1COC(=O)C1(O)c2ccccc2CCc2ccccc21 (stereo not drawn) | inactive: -0.13%
68 | COc1ccccc1OP(C)(=O)Nc1c(C)cccc1C (stereo not drawn) | inactive: -0.13%
